IC50 data for one compound are collected here from ChEMBL document CHEMBL5726294, “Derivatives of 6-(2,3-dichlorophenyl)-1,2,4-triazin-5-amine” (2019).

Protein sequences, listed by entry. Tags and fused reporters are not part of them.
UniProt Q15858, whole entry: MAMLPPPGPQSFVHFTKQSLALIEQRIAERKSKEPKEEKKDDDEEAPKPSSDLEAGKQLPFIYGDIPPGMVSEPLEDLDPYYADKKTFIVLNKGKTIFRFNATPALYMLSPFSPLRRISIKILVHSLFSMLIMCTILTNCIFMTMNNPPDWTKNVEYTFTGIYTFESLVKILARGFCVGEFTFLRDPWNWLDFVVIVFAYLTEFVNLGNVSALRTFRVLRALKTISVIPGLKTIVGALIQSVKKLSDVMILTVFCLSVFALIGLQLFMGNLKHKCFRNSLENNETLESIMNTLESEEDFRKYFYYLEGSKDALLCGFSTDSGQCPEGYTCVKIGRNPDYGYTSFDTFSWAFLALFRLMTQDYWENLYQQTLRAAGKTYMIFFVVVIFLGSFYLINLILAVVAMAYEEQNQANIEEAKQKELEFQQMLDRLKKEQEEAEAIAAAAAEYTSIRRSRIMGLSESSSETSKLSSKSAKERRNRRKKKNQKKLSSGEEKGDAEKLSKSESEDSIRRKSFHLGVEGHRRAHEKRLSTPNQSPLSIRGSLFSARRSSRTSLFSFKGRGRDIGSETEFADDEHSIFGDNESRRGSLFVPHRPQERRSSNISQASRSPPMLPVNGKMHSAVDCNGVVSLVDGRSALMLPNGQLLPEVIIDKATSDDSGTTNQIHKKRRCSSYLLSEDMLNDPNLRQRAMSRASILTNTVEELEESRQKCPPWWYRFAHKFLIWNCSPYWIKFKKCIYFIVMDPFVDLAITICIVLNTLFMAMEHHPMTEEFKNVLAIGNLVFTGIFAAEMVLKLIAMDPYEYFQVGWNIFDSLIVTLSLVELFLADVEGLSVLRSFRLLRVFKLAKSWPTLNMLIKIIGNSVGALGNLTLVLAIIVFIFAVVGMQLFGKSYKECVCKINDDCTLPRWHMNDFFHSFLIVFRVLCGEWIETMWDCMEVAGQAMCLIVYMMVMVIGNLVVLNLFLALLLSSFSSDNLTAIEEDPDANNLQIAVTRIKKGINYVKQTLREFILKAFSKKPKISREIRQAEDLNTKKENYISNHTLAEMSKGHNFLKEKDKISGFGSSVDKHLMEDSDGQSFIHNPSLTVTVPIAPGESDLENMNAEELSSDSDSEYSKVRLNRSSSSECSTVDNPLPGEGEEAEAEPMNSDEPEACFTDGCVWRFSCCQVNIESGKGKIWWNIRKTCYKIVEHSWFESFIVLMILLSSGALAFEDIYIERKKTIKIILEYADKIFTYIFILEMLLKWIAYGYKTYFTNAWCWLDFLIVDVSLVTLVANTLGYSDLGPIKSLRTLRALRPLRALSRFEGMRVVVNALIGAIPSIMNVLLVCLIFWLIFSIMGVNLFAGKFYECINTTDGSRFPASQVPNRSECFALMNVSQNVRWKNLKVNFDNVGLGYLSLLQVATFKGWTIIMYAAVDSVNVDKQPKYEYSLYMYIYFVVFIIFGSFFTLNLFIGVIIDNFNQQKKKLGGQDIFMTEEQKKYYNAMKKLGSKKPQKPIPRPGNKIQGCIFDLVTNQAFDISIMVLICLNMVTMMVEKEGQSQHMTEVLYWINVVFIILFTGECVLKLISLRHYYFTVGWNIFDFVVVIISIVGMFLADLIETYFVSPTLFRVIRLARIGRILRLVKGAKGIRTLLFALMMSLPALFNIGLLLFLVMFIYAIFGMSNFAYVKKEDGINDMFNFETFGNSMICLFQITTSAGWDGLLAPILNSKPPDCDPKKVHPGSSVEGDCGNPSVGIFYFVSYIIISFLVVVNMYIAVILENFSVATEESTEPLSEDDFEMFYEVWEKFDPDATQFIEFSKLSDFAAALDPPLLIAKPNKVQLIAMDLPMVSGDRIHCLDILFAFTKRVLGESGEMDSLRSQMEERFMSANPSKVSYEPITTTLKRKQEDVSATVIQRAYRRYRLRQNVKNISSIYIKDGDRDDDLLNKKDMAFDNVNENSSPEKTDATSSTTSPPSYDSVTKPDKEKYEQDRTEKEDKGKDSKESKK

For assay [1], the target named is T1, Sodium channel protein type 9 subunit alpha (Homo sapiens, UniProt Q15858). As to the kind of experiment: (§1) Ex-Vivo Potencies in Tonic state: The potencies of the compounds provided herein to block specific Na+ channels was measured using automated patch clamp electrophysiologically of Nav1.7 sodium channels (human SCN9A gene) stably expressed in CHO cells using the IonWorks Barracuda system. Currents were measured from the whole cell patch configuration. From a holding potential of −90 mV, membranes were subjected to a 200 ms pre-pulse to −120 mV, then pulsed to 0 mV to measure blockade of the tonic (resting) state. Inactivated state block was elicited by repolarization to −100 mV (20 ms pulse duration), followed by depolarization to 0 mV (20 ms pulse duration). Peak inward Na+ currents were measured in the presence of vehicle or various concentrations of the test compound to determine the percent block of current. In kind it is cell-based.

The target in assay [2] is T1, Sodium channel protein type 9 subunit alpha. The assay is described as §1, with “Inactivated” for “Tonic”. In kind it is cell-based.

`COC[C@@H](O)COC1CN(c2nnc(-c3cccc(Cl)c3Cl)c(N)n2)C1`: the concentration for half-maximal inhibition (IC50) in assay [1] is over 200 µM; in assay [2], 256 µM.
